Assay results from paper PMC3898886, “P-glycoprotein (Mdr1a/1b) and breast cancer resistance protein (Bcrp) decrease the uptake of hydrophobic alkyl triphenylphosphonium cations by the brain” (Biochimica et Biophysica Acta, 2013).

Key:
[1] = tissue and blood content of [3H] TPP compound after IV tail vein injection, wild type mice; conditions: 100 nmol IV, wild type and transgenic mice
[2] = test system: P-glycoprotein (Mdr1a/1b) and breast cancer resistance protein (Bcrp); assay: tissue and blood content of [3H] TPP compound after IV injection, transgenic mice lacking ABC transporters, compared with wild type; conditions: 100 nmol IV

**Q.** What does the source list for `C[P+](c1ccccc1)(c1ccccc1)c1ccccc1` [TPMP, methyltriphenylphosphonium, reference compound]?
**A.** uptake by the kidneys [1]: extensive uptake; uptake into heart, kidney and white adipose tissue, transgenic versus wild type mice [2]: no difference; AUC for accumulation into the brain ([2]; transgenic mice, 1 to 5 h post injection): 0.84 nmol·h/g wet weight
